Measured values taken from publication PMC5259791 (Scientific Reports, 2017).

How the values were obtained:
PPARγ1 = target: T1, PPARγ1 (Homo sapiens, UniProt P37231); assay: PPRE-luciferase transactivation in HEK293 cells stably expressing exogenous PPARγ; assay type: cell-based; conditions: 24 h treatment
T1 construct: from a transfected PCDNA-3 vector carrying a complete PPARγ cDNA; expressed in transfected cells
From the text: To verify that 1 is a bona fide PPARγ ligand with transactivation ability, we transiently transfected a PPRE-TK-luciferase-reporter plasmid in HEK293 cells that, in addition to the endogenous protein, stably express an exogenous PPARγ. These cells were selected as they express a fixed and known amount of PPARγ, so that the differences in luciferase activity can be ascribed to the different ligand used. […] Luciferase activity is reported as fold-induction after normalization to β-galactosidase activity used as control for transfection efficiency. […] (b) Human HEK293T cells were co-transfected with the PPRE-luciferase reporter gene and the wild-type PPARγ1 or its mutant version (C285A). After transfection, cells were treated for 24 h with Rosiglitazone or 1 at the indicated concentrations. Luciferase activity is reported as fold-induction after normalization to β-galactosidase activity used as control for transfection efficiency.
HEK293 cells that stably express an exogenous Flag-tagged PPARγ from a transfected PCDNA-3 vector carrying a complete PPARγ cDNA were used for transfection experiments. The PPRE-Luc plasmid contains a luciferase reporter gene under the transcriptional control of three copies of the PPRE (Peroxisome Proliferator Response Element) derived from Acyl-CoA oxidase gene fused upstream to the herpes simplex thymidine kinase (TK) promoter, as described. […]

PPARγ1 C285A mutant = target: T2, PPARγ1 C285A mutant (Homo sapiens, UniProt P37231, C313A); assay: PPRE-luciferase transactivation in HEK293T cells co-transfected with PPARγ1 C285A mutant; assay type: cell-based; conditions: C285A mutant versus wild type receptor, 24 h
T2 construct: expressed in transfected cells; host or cells: HEK293T (transient); vectors from Takuma Shiraki
From the text: (b) Human HEK293T cells were co-transfected with the PPRE-luciferase reporter gene and the wild-type PPARγ1 or its mutant version (C285A).
HEK293 cells that stably express an exogenous Flag-tagged PPARγ from a transfected PCDNA-3 vector carrying a complete PPARγ cDNA were used for transfection experiments. The PPRE-Luc plasmid contains a luciferase reporter gene under the transcriptional control of three copies of the PPRE (Peroxisome Proliferator Response Element) derived from Acyl-CoA oxidase gene fused upstream to the herpes simplex thymidine kinase (TK) promoter, as described. […] Transient transfection assays were carried out as described in ref. [44]. […] In this case, the experiments were carried out into basal HEK293T cells and the RSV-β-Gal plasmid was used as control for transfection efficiency. […] The wild type and mutant PPARγ containing expression vectors were kindly provided by Dott. Takuma Shiraki. At least three independent experiments were performed for each transfection carried out in duplicate. Luciferase activity was normalized to β-galactosidase activity and reported as fold-induction.

With `CN(CCOc1ccc(CC2SC(=O)NC2=O)cc1)c1ccccn1` (centres unmarked) [Rosiglitazone, reference compound] the “concentration at peak of luciferase activity” value (PPARγ1) was 0.8 µM and the “luciferase activity with C285A mutant” value (PPARγ1 C285A mutant) was “equivalent luciferase activity with both the wild type and mutant receptor”.
